Tests used:
[1] = system: Normal human epidermal keratinocytes; test: Cell proliferation effect of farrerol on keratinocytes (direct evaluation, cell count); assay type: cell-based
Experimental: 3) After 24 hours, 48 hours, and 72 hours from the sample addition, the cells were dispersed with 0.05% Trypsin/EDTA and the number thereof was then counted by a blood cell counter. By the way, in Experiment 1, the evaluation for WST-8 was used as an indicator of the number of cells. Since such a method is provided for indirect evaluation of the number of cells by acting on […] in mitochondria, the present study directly count the number of cells.

[2] = system: Normal human fibroblasts; details: heparin nonsupplemented and heparin supplemented conditions; compared with DMSO-added control; FIG. 1
[3] = system: Normal human fibroblasts; test: Toxicity of farrerol on fibroblasts, MTT assay (WST-8); assay type: cell-based; details: farrerol 10^−6, 5×10^−7 and 10^−7 ml/ml-DMEM
Experimental: The toxicity of farrerol was examined by the MTT assay and the dose of farrerol added to the heparin supplemented system was then obtained. 1. Fibroblasts grown to 80% confluency were dispersed with 0.05% Trypsin/EDTA. The dispersant was seeded on 96 wells/plate at a concentration of 3×10^3 cells/well. 2. After 24 hours, farrerol with adjusted concentration was added to the respective wells in a volume of […]/well (n=8). 3. WST-8/1-Methyl PMS was added to the respective wells in a volume of […]/well after 24 hours, 48 hours, and 72 hours from the addition of farrerol and then incubated at 37° C. for 4 hours. 4. Absorbance was measured at a measurement wavelength of 450 nm and a reference wavelength of 650 nm.

[4] = system: Normal human epidermal keratinocytes

In the case of Cc1c(O)c(C)c2c(c1O)C(=O)CC(c1ccc(O)cc1)O2 (stereo not shown) [farrerol], the cell proliferation rate ([1]; 10^−5 M farrerol, after 24 hours, control (DMSO-added group) = 100%) is reported as 75.1±5.2%, the cell proliferation rate ([1]; 10^−5 M farrerol, after 48 hours, control = 100%) is reported as “about 71.9±16.6%” and the cell proliferation rate ([1]; 10^−6 M farrerol, after 24 hours, control = 100%) is reported as 75.5±5.8%. For the same molecule, the cell proliferation rate ([1]; 10^−7 M farrerol, after 24 hours, control = 100%) was 77.1±8.6%, the cell proliferation rate ([1]; concentrations lower than 10^−5 M, after 48 hours) was “almost the same proliferation rate as that of the control group” and the “cell proliferation (number of cells vs incubation days)” value [2] was “tended to promote cell proliferation”. The cell proliferation [3] was “cell proliferation was promoted”, the “OD value relative to control DMSO” value ([4]; 3×10^3 cells/well, 24 hours, 10^−5 M farrerol) was “two or more times higher than that of the control” and the “OD value relative to DMSO” value ([4]; 3×10^3 cells/well, 48 hours, 10^−5 M farrerol) was 1.7 times. For the same molecule, the “visual evaluation of cell proliferation” value ([4]; farrerol-added group compared with DMSO) was “did not give the impression that the cell proliferation of the farrerol-added group was promoted”.
